The target in assay [1] is CB2 receptor (Homo sapiens, UniProt P34972). Conditions: Table 1; cited from earlier work.
Assay [2] concerns mouse osteoblasts. Briefly: Mouse osteoblast culture (Alamar Blue). The format is cell-based. Conditions: 72 hours, n=3. For orientation: The colour change of resazurin is a common sign of viable cells or microbes.
Assay [3] concerns J774 murine macrophage cells. The experiment in a line: Alamar Blue J774 murine macrophage viability assay. It counts as cell-based.
Assay [4] relates to osteoclasts. The experiment in a line: cells. The format is cell-based, mice. Conditions: Mus musculus, Osteoclast, read-out: IC50, inhibition of osteoclast function and bone resorption. From the text:
Osteoclast formation and activity was studied using an adaptation (see, e.g., van't Hof et al., 1997) of the osteoblast-bone marrow co-culture assay originally described previously (see, e.g., Takahashi et al., 1988). This is another experimental model system to screen for osteoclast-inhibitor and osteoclast-stimulatory agents.
Osteoblasts were isolated from the calvarial bones of 2-day-old mice by sequential collagenase digestion (type I collagenase, Sigma) and cultured in αMEM supplemented with 10% FCS and penicillin and streptomycin at 37° C. in 5% CO2. Bone marrow cell populations containing osteoclast precursors were isolated from the long bones of 3-5 month old mice and erythrocytes were removed by Ficoll Hypaque density gradient centrifugation. The resulting bone marrow cells were washed with PBS and resuspended in culture medium.
Osteoblasts and bone marrow cells were plated at 10^4 cells/well and 2×10^5 cells/well, respectively, in 96-well plates in 150 μL of αMEM supplemented with 10% FCS, antibiotics and 10 nM 1,25-dihydroxyvitamin D3. Test substances were added on day 7 and the cultures were terminated on day 10. At the end of the culture period, osteoclasts were identified by TRAcP staining and resorption pits were quantified by reflected light microscopy, as described above.

The chains behind the UniProt entries cited, without tags or fusion partners.
UniProt P34972, whole entry: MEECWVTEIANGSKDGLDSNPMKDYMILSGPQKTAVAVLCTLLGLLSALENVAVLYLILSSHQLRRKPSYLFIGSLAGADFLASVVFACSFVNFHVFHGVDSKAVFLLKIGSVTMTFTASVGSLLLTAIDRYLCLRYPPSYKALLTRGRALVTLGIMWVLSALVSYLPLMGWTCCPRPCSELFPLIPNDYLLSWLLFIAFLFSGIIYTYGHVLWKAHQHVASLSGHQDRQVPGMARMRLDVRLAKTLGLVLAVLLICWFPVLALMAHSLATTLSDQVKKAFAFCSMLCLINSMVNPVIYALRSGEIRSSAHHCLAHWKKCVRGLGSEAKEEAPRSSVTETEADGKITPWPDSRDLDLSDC

The subject of assay [5] is ovariectomy induced bone loss. Briefly: Ovariectomy induced bone loss, peripheral quantitative computed tomography. The format is in vivo, C57/BL6 mice. To be noted: 6 mg/kg daily injection, 21 days, pQCT, tibia.
Assay [6] concerns rabbit osteoclasts. Briefly: Rabbit osteoclast culture. The format is cell-based.

pIC50: −log10 of the molar value. Read-outs that look alike come from different tables or passages of the source.

As for `Cc1c(C(=O)NN2CCCCC2)nn(-c2ccc(Cl)cc2Cl)c1-c1ccc(I)cc1` [AM251], in assay [1], the Ki (in general, the dissociation constant of the complex between target and ligand, obtained from inhibition or displacement) was 2000 nM. Moreover, in assay [2], the osteoblast survival entry was “highly potent”. For the same compound, the pIC50 (commonly the IC50 on a negative log10 scale, so that one unit is a factor of ten) in assay [3] (Mus musculus, J774, 72 h, read-out: IC50, J774 survival) was around 5.30; in assay [3] (Mus musculus, J774, read-out: IC50 in J774 cells), 5.30; in assay [3] (read-out: IC50, J774 survival) it was around 5.15; in assay [4], around 5.30. For the same compound, in assay [5], the “ovariectomy-induced bone loss, trabecular density” value is listed as “very effective at reversing the bone loss”. Also, the “survival and resorptive activity of authentic rabbit osteoclasts” value in assay [6] is reported as “inhibit”. Further, the “survival of tartrate resistant acid phosphatase positive multinucleated osteoclasts (TRAcP MNC)” value in assay [6] (10 μM (p<0.03) and 20 μM (p<0.01), 48 hours) was “inhibited”.
